Experimental data as given in article PMC8563902, “N^1-methyladenosine methylation in tRNA drives liver tumourigenesis by regulating cholesterol metabolism” (Nature Communications, 2021).

Chains of the proteins cited; added tags and fusions are not shown. Lines headed by an entry give the natural chain unless they say otherwise; changes in a name come on top. Residues count along the entry.
UniProt Q96FX7, 2-289: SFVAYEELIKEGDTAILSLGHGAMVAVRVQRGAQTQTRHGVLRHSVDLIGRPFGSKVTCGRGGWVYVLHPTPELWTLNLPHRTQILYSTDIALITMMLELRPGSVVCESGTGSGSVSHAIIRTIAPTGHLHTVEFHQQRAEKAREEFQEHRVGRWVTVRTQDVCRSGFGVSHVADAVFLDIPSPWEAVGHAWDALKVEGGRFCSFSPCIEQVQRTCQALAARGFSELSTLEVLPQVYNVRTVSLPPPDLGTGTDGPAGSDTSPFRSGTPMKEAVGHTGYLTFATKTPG
UniProt Q9UJA5: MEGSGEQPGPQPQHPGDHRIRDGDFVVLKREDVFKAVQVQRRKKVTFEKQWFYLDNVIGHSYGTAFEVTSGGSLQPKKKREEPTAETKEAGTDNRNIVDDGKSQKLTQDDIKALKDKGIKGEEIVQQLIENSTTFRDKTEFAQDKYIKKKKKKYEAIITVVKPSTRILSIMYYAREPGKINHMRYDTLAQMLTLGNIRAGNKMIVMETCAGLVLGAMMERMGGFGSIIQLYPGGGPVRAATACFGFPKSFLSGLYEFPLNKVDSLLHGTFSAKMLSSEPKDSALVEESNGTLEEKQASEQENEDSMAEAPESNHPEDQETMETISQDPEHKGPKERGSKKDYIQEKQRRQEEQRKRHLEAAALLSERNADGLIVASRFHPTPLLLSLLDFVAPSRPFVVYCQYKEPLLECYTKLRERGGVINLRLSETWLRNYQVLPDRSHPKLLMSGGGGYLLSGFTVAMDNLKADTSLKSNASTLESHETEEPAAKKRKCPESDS

Biological target: TRMT6/TRMT61A complex (Homo sapiens, UniProt Q96FX7+Q9UJA5)
Test: screen for block of TRMT6/TRMT61A interaction in vitro; m1A by LC-MS/MS in treated PLC/PRF/[…] cells
Conditions: blocks subunit interaction (method not described); m1A read in cells treated at the proliferation IC50

C[CH2][Hg][S]c1ccccc1C(=O)O [thimerosal]
screen for block of TRMT6/TRMT61A interaction in vitro; m1A by LC-MS/MS in treat: candidate inhibitors against the interaction of TRMT6 and TRMT61A
